Test: physchem

SMILES: Cc1nc2n(c(=O)c1CCN1CCC(c3noc4cc(F)ccc34)CC1)CCCC2 [RISPERIDONE]
- pKa: 8.7

— ChEMBL document CHEMBL1133765, “QSAR model for drug human oral bioavailability” (J Med Chem, 2000)
